Biological target: T1, Topoisomerase II (Homo sapiens, UniProt P11388)
T1 construct: purchased
Experiment: In vitro Topoisomerase II enzyme inhibition assay (plasmid-based kit)
Type: biochemical
Settings: read-out: Topoisomerase II IC50 (mean ± SD)
Experimental: In vitro enzyme inhibitory assay of compounds 3a and 5d was performed against Topoisomerase-II enzyme using Topoisomerase II Assay Kit (plasmid-based)[34] and HSP90 enzyme using HSP90 (C-Terminal) Inhibitor Screening Assay Kit[35]. The procedure of the used kits was done according to the manufacturer’s instructions.
Topoisomerase II inhibitors can cause DNA damage and halt the cell cycle.

Chains of the proteins cited; added tags and fusions are not shown. Lines headed by an entry give the natural chain unless they say otherwise; changes in a name come on top.
UniProt P11388: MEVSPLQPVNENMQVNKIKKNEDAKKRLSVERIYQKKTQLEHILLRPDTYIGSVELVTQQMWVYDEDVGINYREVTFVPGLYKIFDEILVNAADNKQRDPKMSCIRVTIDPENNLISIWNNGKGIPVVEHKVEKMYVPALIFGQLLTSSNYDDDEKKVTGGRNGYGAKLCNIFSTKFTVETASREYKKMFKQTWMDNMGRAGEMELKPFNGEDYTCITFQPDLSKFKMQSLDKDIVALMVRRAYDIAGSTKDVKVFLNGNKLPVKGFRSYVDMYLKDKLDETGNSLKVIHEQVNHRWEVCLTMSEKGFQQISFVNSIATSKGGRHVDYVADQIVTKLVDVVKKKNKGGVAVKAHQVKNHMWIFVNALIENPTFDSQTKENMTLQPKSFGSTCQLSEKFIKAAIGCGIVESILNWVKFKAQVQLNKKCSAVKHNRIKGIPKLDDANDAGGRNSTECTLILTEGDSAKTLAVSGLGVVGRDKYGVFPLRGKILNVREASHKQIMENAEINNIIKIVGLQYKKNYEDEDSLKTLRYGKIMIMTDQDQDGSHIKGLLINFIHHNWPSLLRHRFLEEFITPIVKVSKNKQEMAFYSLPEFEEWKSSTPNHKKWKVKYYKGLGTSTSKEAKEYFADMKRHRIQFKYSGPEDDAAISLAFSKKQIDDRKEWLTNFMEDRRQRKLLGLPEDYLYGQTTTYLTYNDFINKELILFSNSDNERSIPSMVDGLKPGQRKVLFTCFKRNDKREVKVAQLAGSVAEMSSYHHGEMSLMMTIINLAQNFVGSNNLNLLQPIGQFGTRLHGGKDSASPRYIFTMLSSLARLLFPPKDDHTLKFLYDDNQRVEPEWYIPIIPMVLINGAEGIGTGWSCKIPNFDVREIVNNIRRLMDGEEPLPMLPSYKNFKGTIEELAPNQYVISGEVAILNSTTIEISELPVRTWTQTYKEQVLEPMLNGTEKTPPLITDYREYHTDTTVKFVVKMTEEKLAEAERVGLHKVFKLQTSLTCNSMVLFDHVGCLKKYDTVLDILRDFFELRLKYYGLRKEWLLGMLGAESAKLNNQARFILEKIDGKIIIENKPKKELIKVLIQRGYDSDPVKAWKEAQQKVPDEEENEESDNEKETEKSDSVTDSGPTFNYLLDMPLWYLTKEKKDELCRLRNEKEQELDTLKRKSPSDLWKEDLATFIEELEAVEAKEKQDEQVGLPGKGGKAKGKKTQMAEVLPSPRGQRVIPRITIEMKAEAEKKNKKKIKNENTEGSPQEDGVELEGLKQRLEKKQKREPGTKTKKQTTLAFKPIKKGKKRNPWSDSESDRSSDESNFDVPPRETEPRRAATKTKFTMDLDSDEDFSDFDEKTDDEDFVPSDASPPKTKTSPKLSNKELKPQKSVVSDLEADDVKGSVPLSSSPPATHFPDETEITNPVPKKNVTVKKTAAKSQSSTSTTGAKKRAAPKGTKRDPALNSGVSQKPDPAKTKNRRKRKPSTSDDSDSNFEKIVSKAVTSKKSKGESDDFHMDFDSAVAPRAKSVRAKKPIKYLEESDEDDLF

IC50: 3.45 ± 0.21 µM
SMILES: COc1cccc2c1C(=O)c1c(O)c3c(c(O)c1C2=O)C[C@@](O)(C(=O)CO)C[C@@H]3O[C@H]1C[C@H](N)[C@H](O)[C@H](C)O1 [Doxorubicin, reference compound]

Reference: paper PMC10088926, “Synthesis, DFT calculations, and anti-proliferative evaluation of pyrimidine and selenadiazolopyrimidine derivatives as dual Topoisomerase II and HSP90 inhibitors” (Journal of Enzyme Inhibition and Medicinal Chemistry, 2023)
